Results reported in publication PMC2818863 (Bioorganic & medicinal chemistry, 2009).

Protein sequences, listed by entry. Tags and fused reporters are not part of them. Residues count along the entry.
UniProt P05187, 23-506 limits assumed: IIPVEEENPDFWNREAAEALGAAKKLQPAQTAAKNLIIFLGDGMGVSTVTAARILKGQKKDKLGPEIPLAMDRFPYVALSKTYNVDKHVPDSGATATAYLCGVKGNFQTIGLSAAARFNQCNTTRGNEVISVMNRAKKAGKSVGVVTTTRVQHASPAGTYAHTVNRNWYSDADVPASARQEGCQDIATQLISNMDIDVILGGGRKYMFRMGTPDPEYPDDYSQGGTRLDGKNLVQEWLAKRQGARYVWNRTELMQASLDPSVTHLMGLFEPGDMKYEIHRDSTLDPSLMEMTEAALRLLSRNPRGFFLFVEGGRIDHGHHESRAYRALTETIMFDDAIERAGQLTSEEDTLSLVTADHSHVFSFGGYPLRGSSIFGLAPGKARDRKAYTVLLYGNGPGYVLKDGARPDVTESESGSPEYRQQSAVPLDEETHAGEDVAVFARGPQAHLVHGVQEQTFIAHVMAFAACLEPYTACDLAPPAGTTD

Experiments:
PLAP = PLAP (Homo sapiens, UniProt P05187); assay: PLAP luminescent assay; type: biochemical; conditions: PLAP potency (IC50), mean ± SD of three experiments; CDP-star 85 μM
TNAP = molecular target: T1, TNAP (Homo sapiens, UniProt P05186); assay: TNAP luminescent assay; type: biochemical; conditions: ratio IC50 TNAP / IC50 PLAP
T1 sequence (P05186 18-502 limits assumed): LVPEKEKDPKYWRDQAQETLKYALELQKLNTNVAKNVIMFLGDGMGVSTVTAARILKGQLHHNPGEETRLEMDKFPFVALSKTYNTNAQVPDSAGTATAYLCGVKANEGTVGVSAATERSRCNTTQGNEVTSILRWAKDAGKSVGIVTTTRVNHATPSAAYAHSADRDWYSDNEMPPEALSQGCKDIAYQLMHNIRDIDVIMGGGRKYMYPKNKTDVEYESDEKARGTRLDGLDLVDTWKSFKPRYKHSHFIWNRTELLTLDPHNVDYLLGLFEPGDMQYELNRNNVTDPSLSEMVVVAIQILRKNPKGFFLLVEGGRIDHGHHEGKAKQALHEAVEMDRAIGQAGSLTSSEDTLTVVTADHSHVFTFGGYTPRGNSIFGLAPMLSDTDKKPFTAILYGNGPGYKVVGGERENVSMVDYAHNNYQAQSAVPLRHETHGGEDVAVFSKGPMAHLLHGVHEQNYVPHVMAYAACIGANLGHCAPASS

Structure (SMILES)	IC50 (PLAP)	Selectivity (TNAP/PLAP) (TNAP)
Cn1c(SCC(=O)c2ccc(O)c(O)c2)nnc1-c1ccccc1 [Compound 27]	6700 nM	
O=C(Cn1cnc2ccccc21)c1ccc(O)c(O)c1 [Compound 17]	800 ± 50 nM	
Cc1nc2ccccc2n1CC(=O)c1ccc(O)c(O)c1 [Compound 20]	1200 ± 100 nM	
COc1ccc2c(c1OC)C(=O)OC2CC(=O)c1ccc(O)c(O)c1 (centres unmarked) [Compound 33]	3000 ± 200 nM	
O=C(Cn1ccnc1-c1ccccc1)c1ccc(O)c(O)c1 [Compound 14]		> 6 fold
